Experimental data published in paper PMC3923400.

target: Raf-Ras binding domain (agarose beads coated with it; Raf pull-down assay kit); assay: pull-down

Row | Substance | percent of total K-Ras that is active (caught on Raf) (% of total K-Ras)
1 | K-Ras of Panc1 human pancreatic cancer cells (from UniProt P01116 1-189) (natural protein) | 9
2 | K-Ras of Mpanc96 human pancreatic cancer cells (from UniProt P01116 1-189) (natural protein) | 9
3 | K-Ras of Bxpc3 human pancreatic cancer cells (from UniProt P01116 1-189) (natural protein) | 9
